Assay results taken from patent publication US20260258064A1 (SIRONAX LTD., priority 2023, published 2026).

Amino acid sequences for entries named in this document (tags omitted). Residues count along the entry.
UniProt Q6SZW1, 50-724 limits assumed: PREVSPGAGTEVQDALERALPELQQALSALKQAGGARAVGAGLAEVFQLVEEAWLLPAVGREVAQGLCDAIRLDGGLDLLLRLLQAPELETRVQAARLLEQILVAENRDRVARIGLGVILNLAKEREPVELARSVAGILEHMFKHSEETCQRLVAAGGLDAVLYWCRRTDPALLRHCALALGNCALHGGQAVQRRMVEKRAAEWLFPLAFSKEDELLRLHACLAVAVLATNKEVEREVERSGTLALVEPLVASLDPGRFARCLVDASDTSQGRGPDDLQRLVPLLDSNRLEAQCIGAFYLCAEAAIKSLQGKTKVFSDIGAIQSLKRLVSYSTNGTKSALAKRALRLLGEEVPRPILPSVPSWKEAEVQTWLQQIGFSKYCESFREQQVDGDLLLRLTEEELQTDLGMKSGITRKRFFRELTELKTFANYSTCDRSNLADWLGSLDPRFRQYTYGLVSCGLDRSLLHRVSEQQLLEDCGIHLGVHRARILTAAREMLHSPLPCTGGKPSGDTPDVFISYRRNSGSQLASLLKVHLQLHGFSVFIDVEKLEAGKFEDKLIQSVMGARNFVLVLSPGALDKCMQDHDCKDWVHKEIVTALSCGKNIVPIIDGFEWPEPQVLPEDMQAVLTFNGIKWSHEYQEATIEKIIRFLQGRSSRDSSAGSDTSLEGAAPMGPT

What follows are compounds tested against SARM1 (50-724) (Homo sapiens, UniProt Q6SZW1) (assay: SARM1 (50-724) enzymatic assay (LC-MS/MS)). Conditions: read-out: IC50 (SARM1 inhibitory activity), Purified SARM1 (50-724) 2 nM, NMN as activator, NAD+ as substrate, 1 h at room temperature.
Description: An enzymatic assay was performed in a 384-well plate using Dulbecco's phosphate-buffered saline (PBS) as the reaction buffer. Purified SARM1 (50-724) with a final concentration of 2 nM was pre-incubated with a test compound at […] final assay concentration for 15 min at room temperature. The reaction was initiated by adding a mixture of […] nicotinamide mononucleotide (NMN) as activator and […] NAD^+ as substrate. After 1 h of incubation at room temperature, the reaction was terminated with 10 times volume of 70% acetonitrile, and then centrifuged at 3800 rpm for 10 min. The samples were analyzed using LC-MS/MS after diluted to a proper concentration by 10 mM ammonium acetate (pH 9.75).
In Table 2, activity is provided as follows: A: IC50≤100 nM; B: 100 nM<IC50≤500 nM; C: 500 nM<IC50≤1000 nM; D: IC50>1000 nM.

Row | IC50 [µM] | Compound
1 | < 0.1 | Fc1cc(C(F)(F)F)cc2cc(-c3nncn3-c3cnccc3C(F)(F)F)[nH]c12
2 | > 1 | OC1(C#Cc2ccc3[nH]c(-c4nncn4-c4ccc(F)c(F)c4Cl)nc3c2)CC1
3 | < 0.1 | Cc1c(Cl)cncc1-n1cnnc1-c1[nH]c2ccc(C(F)(F)F)cc2c1C(N)=O
4 | < 0.1 | Cc1c(Cl)cncc1-n1cnnc1-c1[nH]c2ccc(C(F)(F)F)cc2c1C#N

More lines, now with the values behind:

Row | Compound | IC50 [µM]
5 | FC(F)(F)c1ccc2[nH]c(-c3nncn3-c3cnccc3C(F)(F)F)c(C3CCOC3)c2c1 (stereo not drawn) | < 0.1
6 | FC(F)(F)c1ccc2[nH]c(-c3cncn3-c3cnccc3C(F)(F)F)nc2c1 | < 0.1
